This is a selection; strong and weak results do not stand in their true shares. Active and inactive are the calls of the source. Cut-off read from the data, not from the text of the source: active = inhibition above about 25%; inactive = the rest.
Experiment: unspecified inhibition readout at 50 µM (AID 740)
Conditions: unspecified screen; stronger effect = higher value
In the case of `CP(=O)(Nc1ccccc1)Oc1ccc(F)cc1` (centres undefined), the inhibition is reported as inactive: 0.36%. In the case of `CCOC(=O)NC(Sc1ccccc1)C(Cl)(Cl)Cl` (centres undefined), the inhibition is reported as “inactive”. In the case of `O=P1(Nc2nc3ccc(Cl)cc3s2)COc2ccccc2O1` (centres undefined), the inhibition is reported as “inactive”. With `CP(=O)(Nc1ccccc1F)Oc1ccccc1` (centres undefined) the inhibition was inactive: 1.8%. For `Cc1ccccc1NP(C)(=O)Nc1ccccc1C`, the inhibition was inactive: 1.06%. With `CCOP(C)(=S)SCC(=O)NC(C)(CC)C(=O)O` (centres undefined) the inhibition was inactive: 0.11%. In the case of `c1nnnn1CCn1cnnn1`, the inhibition is reported as “inactive”. With `O=C(OC1CN2CCC1CC2)c1cccc(Cl)c1` (centres undefined) the inhibition was “inactive”. For `COc1ccc(OP(C)(=O)Nc2cccc(Br)c2)cc1` (centres undefined), the inhibition was “inactive”. In the case of `CN(C)CCOC(=O)C(O)(c1ccccc1)C1CCCCC1` (centres undefined), the inhibition is reported as inactive: 0.12%. In the case of `CP(=O)(OC12CC3CC(CC(C3)C1)C2)OC12CC3CC(CC(C3)C1)C2`, the inhibition is reported as inactive: 1.81%. For `CC(C)(C)c1ccc(OP(C)(=O)O)cc1`, the inhibition was “inactive”. With `CP(=O)(Nc1ccc(Cl)cc1)Oc1ccc(F)cc1` (centres undefined) the inhibition was inactive: 0.41%. In the case of `CC1CCN(C(=O)Oc2c(Cl)cc(Cl)c3cccnc23)CC1`, the inhibition is reported as “inactive”. With `CCN(CC)CC(O)COC(=O)C(O)(c1ccccc1)C1CCCCC1` (centres undefined) the inhibition was “inactive”. For `CP(=O)(Oc1ccccc1)N1CCOC1=O` (centres undefined), the inhibition was inactive: 0.51%. For `Cc1c(NP(C)(=O)Oc2ccc(C(C)C)cc2)c(=O)n(-c2ccccc2)n1C` (centres undefined), the inhibition was inactive: 0.26%. With `CC(C)CC(=O)NC(Sc1ccc(Cl)cc1)C(Cl)(Cl)Cl` (centres undefined) the inhibition was “inactive”. With `COc1ccccc1OP(C)(=O)Nc1ccc(C)cc1C` (centres undefined) the inhibition was inactive: 0.47%. In the case of `CP(=O)(Nc1ccccn1)Oc1ccccc1` (centres undefined), the inhibition is reported as inactive: 0.64%. With `CCc1ccc(OP(C)(=O)O)cc1` the inhibition was inactive: 0.1%. For `COc1ccc(OP(C)(=O)Nc2ccccn2)cc1` (centres undefined), the inhibition was inactive: 0.67%. For `CN(C)CCOC(=O)C(O)(c1ccccc1)C1CCCC1` (centres undefined), the inhibition was inactive: 0.22%. In the case of `Cc1nc2ccc3ccccc3c2o1.O=[N+]([O-])c1cc([N+](=O)[O-])c(O)c([N+](=O)[O-])c1`, the inhibition is reported as “inactive”. With `COc1ccccc1OP(C)(=O)Nc1ccc(C)c(C)c1` (centres undefined) the inhibition was “inactive”. In the case of `Cc1ccc(NP(C)(=O)Oc2ccccc2)c(C)c1` (centres undefined), the inhibition is reported as inactive: 0.05%. With `COc1ccccc1OP(C)(=O)Nc1ccc(C)cc1` (centres undefined) the inhibition was inactive: 0.7%. With `COc1ccc(OP(C)(=O)Nc2cccc(F)c2)cc1` (centres undefined) the inhibition was “inactive”. In the case of `CCN(CC)C(=S)SC(NC=O)C(Cl)(Cl)Cl` (centres undefined), the inhibition is reported as “inactive”. With `O=C(OC1CN2CCC1CC2)C12CC3CC(CC(C3)C1)C2` (centres undefined) the inhibition was “inactive”. With `CCOP(C)(=S)SCC(=O)NC(C)C(=O)O` (centres undefined) the inhibition was inactive: 0.11%. For `CP(=O)(Nc1ccccn1)Oc1ccc(Cl)cc1` (centres undefined), the inhibition was “inactive”. For `CP(=O)(NC(=O)Nc1ccccc1)Oc1ccccc1` (centres undefined), the inhibition was “inactive”. In the case of `CP(=S)(Nn1cnnc1)Oc1ccccc1` (centres undefined), the inhibition is reported as “inactive”. With `COc1ccccc1OP(C)(=O)Nc1c(C)cccc1C` (centres undefined) the inhibition was “inactive”. With `O=P1(Nc2ccc(Br)cn2)COc2ccccc2OC1` the inhibition was “inactive”. For `Cc1nn(-c2ccccc2)c2c1P(=O)(N1CCOCC1)N(C)C(c1ccccc1)=N2` (centres undefined), the inhibition was “inactive”. With `Cc1nc2ccc3ccccc3c2s1.O=[N+]([O-])c1cc([N+](=O)[O-])c(O)c([N+](=O)[O-])c1` the inhibition was inactive: 0.71%. With `Cc1ccc(C)c(NP(C)(=O)Oc2ccccc2)c1` (centres undefined) the inhibition was inactive: 0.12%. For `Cc1cc(C)cc(OP(C)(=O)Nc2ccccn2)c1` (centres undefined), the inhibition was “inactive”. For `Cc1cc(C)cc(OP(C)(=O)Nc2ccc(C)cc2C)c1` (centres undefined), the inhibition was “inactive”. With `O=[N+]([O-])c1ccc2c(c1)nnn2O` the inhibition was “inactive”. In the case of `CCOP1(=S)c2c(C)nn(CCC#N)c2N=C(c2ccc(F)cc2)N1C` (centres undefined), the inhibition is reported as “inactive”. In the case of `O=P(Nc1nccs1)(c1ccccc1)c1nc2ccccc2s1` (centres undefined), the inhibition is reported as “inactive”.
